Results as given in US6756360B1, “Combination of FBPase inhibitors and insulin sensitizers for the treatment of diabetes” (Metabasis Therapeutics, Inc., priority 1998, dated 2004).

Target: T1, Mouse liver FBPase (Mus musculus, UniProt Q9QXD6)
T1 construct: This partially purified fraction was used for enzyme assays; from tissue; host or cells: mouse liver (45-75% ammonium sulfate fraction of the homogenate)
T1 sequence (Q9QXD6 2-338 limits assumed): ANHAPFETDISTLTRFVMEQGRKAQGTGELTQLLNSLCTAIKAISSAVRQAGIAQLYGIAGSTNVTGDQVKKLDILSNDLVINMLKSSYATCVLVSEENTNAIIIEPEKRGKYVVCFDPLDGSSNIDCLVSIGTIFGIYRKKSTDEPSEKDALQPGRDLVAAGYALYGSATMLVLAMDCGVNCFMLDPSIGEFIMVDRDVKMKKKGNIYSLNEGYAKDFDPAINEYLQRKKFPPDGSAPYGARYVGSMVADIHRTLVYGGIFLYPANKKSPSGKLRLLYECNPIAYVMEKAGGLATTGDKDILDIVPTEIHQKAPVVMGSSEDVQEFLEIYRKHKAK
Test: Inhibition of mouse liver FBPase
Assay type: biochemical

CCc1cc(F)c(N)c2nc(-c3ccc(P(=O)(O)O)o3)n(CC(C)C)c12 [Compound E]
IC50: 1.1 µM
